Type: physicochemical

Substance	pH 0
ammonium nitrate [NH4NO3 7%]	6.3
ammonium nitrate [NH4NO3 1.75%]	6.6
ammonium nitrate [NH4NO3 3.5%]	6.4

Source: US10681911B2, “Anthelminthic composition” (AgResearch Limited, priority 2016, dated 2020)
